# Ab-14 light chain CDR variants: yeast mating affinities

From the AlphaSeq antibody data of Engelhart et al. 2022 (doi:10.1038/s41597-022-01779-4), copy in the FLAb collection.

Target peptide (SARS-CoV-2 spike, HR2 region): PDVDLGDISGINAS

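The library (AAYL50) carries one to three amino acid substitutions per variant, with no insertions or deletions. AlphaSeq pools MATa yeast showing the antibodies with MATalpha yeast showing the peptide. Mating (16 h, 30 °C) was followed by selection of diploids and sequencing of their barcodes. Each replicate has its own calibration line, from reference interactions of the BCL2 family. Mating was done three times.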

The variants keep the heavy chain, the linker and the frameworks of Ab-14 (scFv order VH, a 15-residue (Gly4Ser)3 linker, VL).
VH: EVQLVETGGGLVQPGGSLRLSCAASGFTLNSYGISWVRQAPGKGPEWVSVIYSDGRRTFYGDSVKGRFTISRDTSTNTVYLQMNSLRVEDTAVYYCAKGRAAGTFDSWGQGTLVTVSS
VL: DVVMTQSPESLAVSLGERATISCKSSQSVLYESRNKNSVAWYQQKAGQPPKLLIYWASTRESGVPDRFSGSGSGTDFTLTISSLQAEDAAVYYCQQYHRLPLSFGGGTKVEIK

Positions count from residue 1 of the parent VL; Q95W puts W in place of Q.
This list gathers variants with a substitution at L100 (VL, numbered from residue 1).
Values are apparent Kd, the geometric mean of the replicates that gave a signal; lower means stronger binding.
An entry "nd" has no value in the source: the pair was not observed among the diploids in any replicate. This suggests poor binding but is not conclusive.
As a blank, each scFv also met three strains without target: over library AAYL50, 18% of these pairings were detected, typically at 15 µM and seldom below 970 nM. Also given: how often the same scFv was detected with the empty control strains.
In this assay the parent's reference entry averaged 4.4 nM; its copy inside this library read 48 nM.

Q95W+Q96M+L100C: nd (0 of 3 replicates; controls 0 of 9).
W56I+S58R+L100V: nd (0 of 3 replicates; controls 1 of 9).
Q27P+L100H+P101V: 42 nM (3 of 3 replicates; controls 2 of 9).
V29I+L100S+S103G: nd (0 of 3 replicates; controls 1 of 9).
K24I+R99D+L100I: nd (0 of 3 replicates; controls 3 of 9).
Q95F+R99K+L100N: 270 µM (3 of 3 replicates; controls 1 of 9).
V39P+Y97S+L100N: 19 µM (2 of 3 replicates; controls 2 of 9).
V29E+N35V+L100Y: 210 nM (3 of 3 replicates; controls 2 of 9).
K24W+S58W+L100V: nd (0 of 3 replicates; controls 1 of 9).
R60P+E61I+L100S: 38 µM (1 of 3 replicates; controls 4 of 9).
Y31W+L100R: nd (0 of 3 replicates; controls 0 of 9).
S26F+L100M: 68 nM (3 of 3 replicates; controls 1 of 9).
N35Q+L100R+P101W: nd (0 of 3 replicates; controls 0 of 9).
R60E+Q95M+L100I: nd (0 of 3 replicates; controls 0 of 9).
S25M+Q95V+L100I: 650 nM (1 of 3 replicates; controls 0 of 9).
S58E+H98L+L100Q: nd (0 of 3 replicates; controls 0 of 9).
S62P+L100P: 5.4 nM (3 of 3 replicates; controls 2 of 9).
K24D+E61C+L100G: 16 nM (3 of 3 replicates; controls 0 of 9).
Y31T+S62H+L100P: 110 nM (3 of 3 replicates; controls 2 of 9).
V29L+L100V: 8.8 nM (3 of 3 replicates; controls 3 of 9).
Q27R+L100K+S103E: 24 nM (3 of 3 replicates; controls 1 of 9).
R60Q+L100G: 33 µM (1 of 3 replicates; controls 1 of 9).
L100E+P101Y: 5.5 nM (3 of 3 replicates; controls 3 of 9).
R99P+L100S: 100 µM (1 of 3 replicates; controls 4 of 9).
V29E+Y31L+L100Q: 22 µM (3 of 3 replicates; controls 1 of 9).
S33K+L100C+S103G: 59 nM (3 of 3 replicates; controls 3 of 9).
L30H+L100G: nd (0 of 3 replicates; controls 0 of 9).
A57E+L100I+S103K: nd (0 of 3 replicates; controls 1 of 9).
A57T+S62Q+L100P: 5.0 nM (3 of 3 replicates; controls 0 of 9).
S38V+Q95I+L100T: nd (0 of 3 replicates; controls 0 of 9).
Q95R+L100N+L102N: nd (0 of 3 replicates; controls 0 of 9).
Y31F+A57G+L100M: 11 nM (3 of 3 replicates; controls 3 of 9).
E32S+A57V+L100R: nd (0 of 3 replicates; controls 1 of 9).

Excerpt, the final 4 entries:

changes,apparent Kd,replicates with signal,signal with controls
S38V+Q95I+L100T,nd,0/3,0/9
Q95R+L100N+L102N,nd,0/3,0/9
Y31F+A57G+L100M,11 nM,3/3,3/9
E32S+A57V+L100R,nd,0/3,1/9